{"source": "patent US5574008A", "about": "“Biologically active fragments of glucagon-like insulinotropic peptide” (Eli Lilly and Company, priority 1994, dated 1996)", "test_system": "fasted normal Sprague-Dawley rats", "assay": "In vivo hyperglycemic clamp assay (glucose up-take assay)", "design": "species or system rat", "conditions": "0.3 nmol/kg iv bolus at 60 min", "text": "In vivo Hyperglycemic Clamp Assay (Glucose Up-take Assay) Male Sprague-Dawley rats (Charles Rivers) weighing about 350 grams were allowed to acclimate to their surroundings for a week after which they were cannulated under isoflurane inhalation anesthetic. Two catheters were implanted into the jugular vein for infusions of glucose and GLP-1 fragment. Another catheter was implanted into the carotid artery for sampling blood. The catheters were exteriorized through the skin at the vertex of the head, filled with a glycerol/heparin solution (30 ml glycerol/10 ml heparin from a 1000 u/ml stock solution), and closed off with a one centimeter stainless steel plug. The rats were housed individually in wire mesh cages and were fed ad libitum on a standard rat chow diet. Each animal was given at least one week to recover from surgery before testing any GLP-1 fragments for biological activity. The rats were fasted overnight; on the morning of the experiment, sampling tubes were connected to the indwelling catheters, and the tubes were enclosed in a light weight stainless steel spring for protection. The rats were acclimated to their cages for 15 minutes. All experiments were carried out in conscious, free moving rats. A basal blood sample was taken for measurement of insulin and glucose levels at time zero on the timer. The rats were then given a bolus of 20% dextrose to raise plasma glucose to either 150 mg/dl (8.3 mM) or 200 mg/dl (11.2 mM). Plasma glucose levels were maintained at the chosen level by measuring plasma glucose levels approximately every 5 minutes and adjusting the calibrated variable infusion pump as needed to maintain the established blood glucose levels. Blood samples were collected at 45 and 60 minutes for the control period measurements. At 60 minutes into the clamp, 0.3 nmol/kg of the experimental GLP-1 fragment was injected via the jugular vein catheter and flushed with saline. […] The blood samples were centrifuged in a micro centrifuge to separate the plasma component. Plasma glucose was measured on a Beckman Glucose analyzer II using the glucose oxidase method. Plasma insulin was determined by standard radio immunoassay as per the manufacturer's directions (Diagnostic Products Corp.). The activity of the GLP-1 fragment was determined by the percentage change in glucose infusion rate and change in insulin secreted. These two parameters were compared to control rats that received only diluent. Note: This assay is based on reports that GLP-1 insulinotropic action is glucose dependent. The assay protocol eliminates variability due to falling glucose levels in other protocols using the \"bolus\" method. The hyperglycemic clamp involved administration of variable amounts of glucose (20% dextrose) to maintain glucose at a constant level of 8.3 or 11.2 mM in fasted normal Sprague-Dawley rats. The hyperglycemic clamp is maintained for 1 hour after which the GLP-1 fragment is injected as a bolus through the jugular vein. […] The glucose infusion rate (GIR) in the last 15 minutes of the control period and after the injection of the peptide is calculated. The activity of the peptide is determined by the increase in glucose infusion rate and change in insulin secreted after the injection of the peptide.", "key": {"[1]": {"conditions": "150 mg/dl plasma glucose clamp, time 60 min"}, "[2]": {"conditions": "150 mg/dl plasma glucose clamp, time 62 min"}, "[3]": {"conditions": "150 mg/dl plasma glucose clamp, time 64 min"}, "[4]": {"conditions": "150 mg/dl plasma glucose clamp, time 66 min"}, "[5]": {"conditions": "150 mg/dl plasma glucose clamp, time 68 min"}, "[6]": {"conditions": "150 mg/dl plasma glucose clamp, time 70 min"}, "[7]": {"conditions": "150 mg/dl plasma glucose clamp, time 75 min"}, "[8]": {"conditions": "150 mg/dl plasma glucose clamp, time 80 min"}, "[9]": {"conditions": "150 mg/dl plasma glucose clamp, time 85 min"}, "[10]": {"conditions": "150 mg/dl plasma glucose clamp, time 90 min"}, "[11]": {"conditions": "150 mg/dl plasma glucose clamp, time 100 min"}, "[12]": {"conditions": "150 mg/dl plasma glucose clamp, time 110 min"}, "[13]": {"conditions": "150 mg/dl plasma glucose clamp, time 120 min"}, "[14]": {"conditions": "150 mg/dl plasma glucose clamp, time 130 min"}, "[15]": {"conditions": "150 mg/dl plasma glucose clamp, time 140 min"}, "[16]": {"conditions": "150 mg/dl plasma glucose clamp, time 150 min"}}, "data": [{"smiles": "CC[C@H](C)[C@H](NC(=O)[C@H](Cc1ccccc1)NC(=O)[C@H](CCC(=O)O)NC(=O)[C@H](CCCCN)NC(=O)[C@H](C)NC(=O)[C@H](C)NC(=O)[C@H](CCC(N)=O)NC(=O)CNC(=O)[C@H](CCC(=O)O)NC(=O)[C@H](CC(C)C)NC(=O)[C@H](Cc1ccc(O)cc1)NC(=O)[C@H](CO)NC(=O)[C@H](CO)NC(=O)[C@@H](NC(=O)[C@H](CC(=O)O)NC(=O)[C@H](CO)NC(=O)[C@@H](NC(=O)[C@H](Cc1ccccc1)NC(=O)[C@@H](NC(=O)CNC(=O)[C@H](CCC(=O)O)NC(=O)[C@H](C)N)[C@@H](C)O)[C@@H](C)O)C(C)C)C(=O)N[C@@H](C)C(=O)N[C@@H](Cc1c[nH]c2ccccc12)C(=O)N[C@@H](CC(C)C)C(=O)N[C@H](C(=O)N[C@@H](CCCCN)C(=O)NCC(=O)N[C@@H](CCCNC(=N)N)C(=O)NCC(=O)O)C(C)C", "note": "[GLP-1(8-37)OH]", "values": [{"measurement": "% Change in GIR", "setting": "[1]", "value": 5.50, "unit": "%"}, {"measurement": "Plasma Insulin Change", "setting": "[1]", "value": 0.792, "unit": "ng/mL"}, {"measurement": "% Change in GIR", "setting": "[2]", "value": -0.21, "unit": "%"}, {"measurement": "Plasma Insulin Change", "setting": "[2]", "value": -0.213, "unit": "ng/mL"}, {"measurement": "% Change in GIR", "setting": "[3]", "value": -0.21, "unit": "%"}, {"measurement": "Plasma Insulin Change", "setting": "[3]", "value": -0.079, "unit": "ng/mL"}, {"measurement": "% Change in GIR", "setting": "[4]", "value": -0.21, "unit": "%"}, {"measurement": "Plasma Insulin Change", "setting": "[4]", "value": -0.026, "unit": "ng/mL"}, {"measurement": "% Change in GIR", "setting": "[5]", "value": 42.55, "unit": "%"}, {"measurement": "Plasma Insulin Change", "setting": "[5]", "value": 0.655, "unit": "ng/mL"}, {"measurement": "% Change in GIR", "setting": "[6]", "value": 45.77, "unit": "%"}, {"measurement": "Plasma Insulin Change", "setting": "[6]", "value": 0.324, "unit": "ng/mL"}, {"measurement": "% Change in GIR", "setting": "[7]", "value": -6.20, "unit": "%"}, {"measurement": "Plasma Insulin Change", "setting": "[7]", "value": -0.412, "unit": "ng/mL"}, {"measurement": "% Change in GIR", "setting": "[8]", "value": -100.0, "unit": "%"}, {"measurement": "Plasma Insulin Change", "setting": "[8]", "value": -0.217, "unit": "ng/mL"}, {"measurement": "% Change in GIR", "setting": "[9]", "value": -100.0, "unit": "%"}, {"measurement": "Plasma Insulin Change", "setting": "[9]", "value": -0.489, "unit": "ng/mL"}, {"measurement": "% Change in GIR", "setting": "[10]", "value": -100.0, "unit": "%"}, {"measurement": "Plasma Insulin Change", "setting": "[10]", "value": -0.163, "unit": "ng/mL"}, {"measurement": "% Change in GIR", "setting": "[11]", "value": -100.0, "unit": "%"}, {"measurement": "Plasma Insulin Change", "setting": "[11]", "value": -0.334, "unit": "ng/mL"}, {"measurement": "% Change in GIR", "setting": "[12]", "value": -100.0, "unit": "%"}, {"measurement": "Plasma Insulin Change", "setting": "[12]", "value": -0.324, "unit": "ng/mL"}, {"measurement": "% Change in GIR", "setting": "[13]", "value": -100.0, "unit": "%"}, {"measurement": "Plasma Insulin Change", "setting": "[13]", "value": -0.792, "unit": "ng/mL"}, {"measurement": "% Change in GIR", "setting": "[14]", "value": -100.0, "unit": "%"}, {"measurement": "Plasma Insulin Change", "setting": "[14]", "value": -0.792, "unit": "ng/mL"}, {"measurement": "% Change in GIR", "setting": "[15]", "value": -100.0, "unit": "%"}, {"measurement": "Plasma Insulin Change", "setting": "[15]", "value": -0.792, "unit": "ng/mL"}, {"measurement": "% Change in GIR", "setting": "[16]", "value": -100.0, "unit": "%"}, {"measurement": "Plasma Insulin Change", "setting": "[16]", "value": -0.792, "unit": "ng/mL"}]}, {"smiles": "CC[C@H](C)[C@H](NC(=O)[C@H](Cc1ccccc1)NC(=O)[C@H](CCC(=O)O)NC(=O)[C@H](CCCCN)NC(=O)[C@H](C)NC(=O)[C@H](C)NC(=O)[C@H](CCC(N)=O)NC(=O)CNC(=O)[C@H](CCC(=O)O)NC(=O)[C@H](CC(C)C)NC(=O)[C@H](Cc1ccc(O)cc1)NC(=O)[C@H](CO)NC(=O)[C@H](CO)NC(=O)[C@@H](NC(=O)[C@H](CC(=O)O)NC(=O)[C@H](CO)NC(=O)[C@@H](NC(=O)[C@H](Cc1ccccc1)NC(=O)[C@@H](NC(=O)CNC(=O)[C@@H](N)CCC(=O)O)[C@@H](C)O)[C@@H](C)O)C(C)C)C(=O)N[C@@H](C)C(=O)N[C@@H](Cc1c[nH]c2ccccc12)C(=O)N[C@@H](CC(C)C)C(=O)N[C@H](C(=O)N[C@@H](CCCCN)C(=O)NCC(=O)N[C@@H](CCCNC(=N)N)C(=O)NCC(=O)O)C(C)C", "note": "[GLP-1(9-37)OH]", "values": [{"measurement": "% Change in GIR", "setting": "200 mg/dl plasma glucose clamp, time 60 min", "value": 18.229, "unit": "%"}, {"measurement": "% Change in GIR", "setting": "200 mg/dl plasma glucose clamp, time 62 min", "value": 20.833, "unit": "%"}, {"measurement": "% Change in GIR", "setting": "200 mg/dl plasma glucose clamp, time 64 min", "value": 20.045, "unit": "%"}, {"measurement": "% Change in GIR", "setting": "200 mg/dl plasma glucose clamp, time 66 min", "value": 9.789, "unit": "%"}, {"measurement": "% Change in GIR", "setting": "200 mg/dl plasma glucose clamp, time 68 min", "value": 17.016, "unit": "%"}, {"measurement": "% Change in GIR", "setting": "200 mg/dl plasma glucose clamp, time 70 min", "value": 24.101, "unit": "%"}, {"measurement": "% Change in GIR", "setting": "200 mg/dl plasma glucose clamp, time 75 min", "value": 30.211, "unit": "%"}, {"measurement": "% Change in GIR", "setting": "200 mg/dl plasma glucose clamp, time 80 min", "value": 13.304, "unit": "%"}, {"measurement": "% Change in GIR", "setting": "200 mg/dl plasma glucose clamp, time 85 min", "value": -1.974, "unit": "%"}, {"measurement": "% Change in GIR", "setting": "200 mg/dl plasma glucose clamp, time 90 min", "value": -16.488, "unit": "%"}, {"measurement": "% Change in GIR", "setting": "200 mg/dl plasma glucose clamp, time 100 min", "value": -34.401, "unit": "%"}, {"measurement": "% Change in GIR", "setting": "200 mg/dl plasma glucose clamp, time 110 min", "value": -48.313, "unit": "%"}, {"measurement": "% Change in GIR", "setting": "200 mg/dl plasma glucose clamp, time 120 min", "value": -55.055, "unit": "%"}, {"measurement": "% Change in GIR", "setting": "200 mg/dl plasma glucose clamp, time 130 min", "value": -56.835, "unit": "%"}, {"measurement": "% Change in GIR", "setting": "200 mg/dl plasma glucose clamp, time 140 min", "value": -56.835, "unit": "%"}, {"measurement": "% Change in GIR", "setting": "200 mg/dl plasma glucose clamp, time 150 min", "value": -56.835, "unit": "%"}]}]}
